According to patent US7375124B2, “Use of α-phenylthiocarboxylic and α-phenyloxycarboxylic acids with serum-glucose-lowering and serum-lipid-lowering activity” (Sigma-Tau Industrie Farmaceutiche Riunite S.p.A., priority 2002, dated 2008):

Tested on: C57BL/KsJ db/db mouse
Assay: Antidiabetic and serum-lipid-lowering activity in the db/db mouse (Experiments I and II)
Settings: Experiment I, after 18 days' treatment, OGTT glucose 3 g/kg

CN(CCOc1ccc(CC2SC(=O)NC2=O)cc1)c1ccccn1 (centres unmarked) [Rosiglitazone, rosiglitazone, reference compound]
Variation % (AUC glucose at OGTT) vs control: −25%
AUC glucose at OGTT (fasting 18 hours, 5 hours after last treatment, mean ± S.E.): 38174 ± 3555Δ a.u.
